Results reported in patent US8309599B2, “Synthesis of FR901464 and analogs with antitumor activity” (University of Pittsburgh-Of The Commonwealth System of …, priority 2006, dated 2012).

System: MCF-7
Experiment: cells
Conditions: Homo sapiens, MCF7, 120 h, read-out: GI50 against MCF-7

SMILES: CC(=O)O[C@@H](C)/C=C\C(=O)N[C@@H]1C[C@H](C)[C@H](C/C=C(C)/C=C/[C@H]2OC(C)(C)C[C@@]3(CO3)[C@@H]2O)O[C@@H]1C [meayamycin]
- GI50: 40 pM
